# Assay results: patent US20070060605A1, “Compositions and methods for inhibiting platelet activation and thrombosis” (priority 2001, published 2007)
# Test system: platelet accumulation into thrombus
# Conditions: mouse, in vivo
# Description: A preferred animal model involves intravital microscopy of laser-induced thrombi. The method is described by Rosen et al., 2001, Am J Pathol 158, 1613-1622, which is incorporated herein by reference. Minor variations of that method were employed as described below.
# Experimental mice are pre-anesthetized and surgically prepared. A tracheal tube is placed to facilitate breathing and the jugular vein is canulated to allow for maintenance of anesthetic and introduction of compound. The cremaster muscle is then exteriorized. The muscle is affixed over a glass slide, allowing illumination from below. […]
# Thrombosis is initiated by damaging the vessel wall (of a 30 μm vessel) with a laser pulse from a MicroPoint LASER attached to the microscope. […] The recruitment of platelets to the thrombus is then monitored by the accumulation of (activated) Alexa 488-labeled platelets at the ablation site using fluorescence microscopy, and the process is recorded digitally. The method thus permits in vivo analysis of platelet activation as measured by platelet aggregation and thrombosis.
# The degree of embolization in an untreated mouse can be quantified using software for image analysis, e.g., BioQuant True Color Windows (Biometrics, Nashville, Tenn.), as described in Rosen et al., 2001, supra. […]
substance,measurement,value
"9-methylene-4-(alkyl)-2,3,4,9-tetrahydro-1H-cyclopenta(b)quinoline",Tolerability in mice,tolerated
